The list shows a part of the results, in another mix than the full data. Active and inactive are the calls of the source.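 The calls were made as follows: active = inhibition above the mean over all tested compounds plus 3 SD (cut at about 21% in these data); inactive = the rest.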

By UniProt entry, the sequences of proteins in these tests, tags left out. Where a name states a change or a piece, a line headed by the entry shows the natural chain unless it says otherwise.
UniProt Q9NR96: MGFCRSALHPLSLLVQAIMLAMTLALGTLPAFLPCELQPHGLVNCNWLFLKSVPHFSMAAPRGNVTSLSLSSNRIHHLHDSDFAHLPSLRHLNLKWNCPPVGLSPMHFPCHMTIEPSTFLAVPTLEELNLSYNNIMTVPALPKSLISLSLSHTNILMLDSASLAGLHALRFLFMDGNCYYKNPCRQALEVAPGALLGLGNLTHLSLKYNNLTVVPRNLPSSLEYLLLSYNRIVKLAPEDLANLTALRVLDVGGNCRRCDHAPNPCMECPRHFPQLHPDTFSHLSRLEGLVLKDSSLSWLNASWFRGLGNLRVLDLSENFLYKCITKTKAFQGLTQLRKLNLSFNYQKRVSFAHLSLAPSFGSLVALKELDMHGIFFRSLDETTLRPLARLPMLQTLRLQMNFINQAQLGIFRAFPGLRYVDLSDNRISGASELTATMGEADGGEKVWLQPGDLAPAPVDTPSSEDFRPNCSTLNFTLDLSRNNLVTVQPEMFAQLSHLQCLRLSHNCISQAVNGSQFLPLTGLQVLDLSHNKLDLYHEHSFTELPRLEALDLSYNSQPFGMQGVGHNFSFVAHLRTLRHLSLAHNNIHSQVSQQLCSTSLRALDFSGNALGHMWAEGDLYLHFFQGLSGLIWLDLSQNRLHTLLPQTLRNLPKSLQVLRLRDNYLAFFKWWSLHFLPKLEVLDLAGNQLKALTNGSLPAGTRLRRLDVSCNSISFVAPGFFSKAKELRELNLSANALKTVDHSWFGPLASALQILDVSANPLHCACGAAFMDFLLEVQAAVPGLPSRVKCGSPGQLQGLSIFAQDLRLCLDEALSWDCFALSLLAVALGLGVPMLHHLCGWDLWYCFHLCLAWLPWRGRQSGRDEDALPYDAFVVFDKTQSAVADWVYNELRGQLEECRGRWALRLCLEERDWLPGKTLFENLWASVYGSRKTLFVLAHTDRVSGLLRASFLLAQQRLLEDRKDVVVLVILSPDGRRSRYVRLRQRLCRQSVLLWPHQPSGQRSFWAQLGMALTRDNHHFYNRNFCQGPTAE
UniProt Q99836, whole entry, looked up: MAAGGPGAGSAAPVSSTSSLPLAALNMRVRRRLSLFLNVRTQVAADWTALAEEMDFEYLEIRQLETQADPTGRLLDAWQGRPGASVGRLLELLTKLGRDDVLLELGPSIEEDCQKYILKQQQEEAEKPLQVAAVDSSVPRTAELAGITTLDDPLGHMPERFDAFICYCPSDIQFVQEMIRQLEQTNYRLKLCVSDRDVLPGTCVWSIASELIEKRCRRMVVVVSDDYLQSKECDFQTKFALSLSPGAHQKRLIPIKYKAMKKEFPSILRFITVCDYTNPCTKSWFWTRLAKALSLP

This assay deals with Toll-like receptor 9 (Homo sapiens) + Myeloid differentiation primary response protein MyD88 (Homo sapiens) (UniProt Q9NR96+Q99836). Description: inhibitors of TLR9-MyD88 association in cells, primary screen, cell-based, CHO, BLA complementation, fluorescence (AID 504734).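 Also: 0% = DMSO only wells and 100% = clavulanate BLA inhibitor control wells.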 To be noted: CHO BLA complementation TLR9-MyD88, CCF4 FRET ratio; at 4.98 µM; hits give high values.
For the compound `Nc1ccc([As](=O)(O)c2ccc(N)cc2)cc1`, the inhibition was inactive: -5.36%.

As for `O=C(Nc1cc([As](=O)(O)O)ccc1O)c1ccccc1`, the inhibition is inactive: -2.92%.

With `O=P1(N(CCCl)CCCl)OCCCS1` (stereo not drawn), the inhibition was inactive: -0.99%.

As to `O=C(O)CNc1ccc([As](=O)(O)O)cc1`, the inhibition is inactive: -0.82%.

Turning to `COC(=O)C1(C)COP(=O)(Nc2ccccc2)OC1` (stereo not drawn), the inhibition is inactive: -3.41%.

On to `O=[N+]([O-])c1cccc(NC2=NCC(CBr)S2)c1` (stereo not drawn), for which the inhibition was inactive: 4.35%.

`O=[N+]([O-])c1ncn(CCn2ncnc2[N+](=O)[O-])n1`: the inhibition is inactive: 10.9%.

`CC(C)(C)C(=O)NC(Sc1ccncn1)C(Cl)(Cl)Cl` (stereo not drawn): the inhibition is inactive: -6.82%.

As to `CN(C(=O)Cc1ccc(Cl)c(Cl)c1)[C@H]1CCCC[C@@H]1N1CCCC1`, the inhibition is inactive: -3.83%.

As to `Cc1ccc(NP(=O)(Oc2ccccc2F)Oc2ccccc2F)nc1`, the inhibition was inactive: -12.3%.

As to `Cc1cc(SC(NC(=O)c2ccc(F)cc2)C(Cl)(Cl)Cl)ncn1` (stereo not drawn), the inhibition is inactive: -0.11%.

With `CCOP(=O)(Nc1ccccc1)OCC`, the inhibition was inactive: -3.21%.

As to `O=P(Nc1nc2ccc(Cl)cc2s1)(c1ccccc1)c1ccccc1`, the inhibition was inactive: -5.81%.

Turning to `CN(C)P(=O)(N(C)C)n1c(Nc2ccccc2)nnc1-c1ccccc1`, the inhibition is inactive: -5.92%.

As to `CCCC1OP(N)(=O)OCC1CC` (stereo not drawn), the inhibition was inactive: 0.69%.

As for `CC(=O)Nc1ccc([As](=O)(O)O)cc1`, the inhibition was inactive: 0.09%.

As to `O=C(O)c1ccccc1[As](=O)(O)O`, the inhibition is inactive: 7.26%.

`Nc1cccc2ccc([As](=O)(O)O)cc12`: the inhibition was inactive: -5.01%.

As for `CCN(N=Nc1nonc1N)c1nonc1N`, the inhibition is inactive: 5.29%.

With `CN1CCCC(OC(=O)C(c2ccccc2)c2ccccc2)C1` (stereo not drawn), the inhibition is inactive: -6.04%.

Regarding `Clc1ccc(Cl)c(NC2=NCC(CBr)S2)c1` (stereo not drawn), the inhibition was inactive: 5.93%.

Regarding `COc1ccccc1OP(=O)(Nc1ccc(C)cn1)Oc1ccccc1OC`, the inhibition is inactive: 0.76%.

With `Cc1ccc(N/C(=N/P(=O)(N2CCOCC2)N2CCOCC2)N2CCOCC2)cc1`, the inhibition is inactive: -9.13%.

Consider `CN(C(=O)Cc1ccc(Cl)c(Cl)c1)[C@H]1CCCC[C@H]1N1CCCC1`, for which the inhibition is inactive: -1.87%.

Regarding `NC(=O)c1cc([N+](=O)[O-])cc([N+](=O)[O-])c1N`, the inhibition was inactive: 5.04%.

For `O=C(NC(Sc1ccncn1)C(Cl)(Cl)Cl)c1ccccc1` (stereo not drawn), the inhibition is inactive: 2.19%.

`Oc1ccccc1CNc1ccccn1`: the inhibition is inactive: -1.73%.

Take `Nc1cc(N)c2nonc2c1[N+](=O)[O-]`: the inhibition was inactive: 2.4%.

`CC(C)CC(=O)NC(Sc1ccc(Cl)cc1)C(Cl)(Cl)Cl` (stereo not drawn): the inhibition is inactive: 7%.

For `CC(C)(C)C(=O)NC(Sc1ccccc1)C(Cl)(Cl)Cl` (stereo not drawn), the inhibition is inactive: 3.97%.

As for `CCc1cc(O)c([N+](=O)[O-])c(C)c1[N+](=O)[O-]`, the inhibition was inactive: 11%.

As for `CCOc1ccc(C2=NCC(CBr)S2)cc1` (stereo not drawn), the inhibition was inactive: 6.36%.

In the case of `O=P1(Nc2nc3ccc(Cl)cc3s2)COc2ccccc2O1` (stereo not drawn), the inhibition is inactive: -0.49%.

Turning to `CC(=O)Nc1ccc(Oc2c([N+](=O)[O-])cc([N+](=O)[O-])cc2[N+](=O)[O-])cc1`, the inhibition was inactive: 10.7%.

For the compound `CC(=O)Nc1ccc([As](=O)(O)O)c(O)c1`, the inhibition was inactive: 3.96%.

Regarding `C[C@H]1OP(=O)(Oc2ccccc2)C[C@@H]2O[C@@H]21` (stereo partly drawn), the inhibition is inactive: -5.27%.

`C[C@@H]1C=CCP(=O)(Oc2ccccc2)O1` (stereo partly drawn): the inhibition was inactive: -5.12%.

With `Cc1ccccc1CN(C)C(=O)COC(=O)C(O)(c1ccccc1)c1ccccc1`, the inhibition is inactive: -11.3%.

As to `COC(=O)C1(C)COP(=O)(NCc2ccccc2)OC1` (stereo not drawn), the inhibition is inactive: -9.49%.

With `CC(=O)c1ccc(N2CC2c2ccncc2)cc1` (stereo not drawn), the inhibition was inactive: -8.67%.

As to `N#C/C(=C\c1ccc(N(CCBr)CCBr)cc1)C(N)=O`, the inhibition was inactive: -9.78%.

On to `O=P1(N(CCCl)CCCl)OCCC2CCCCN21` (stereo not drawn), for which the inhibition is inactive: 1.57%.

On to `O=C(NC1CCS(=O)(=O)C1)NP(=S)(Oc1ccccc1)Oc1ccccc1` (stereo not drawn), for which the inhibition is inactive: 4.29%.

On to `CCNC(=S)/N=C(\N)N[N+](=O)[O-]`, for which the inhibition is inactive: 0.99%.

Take `O=c1c2cc([N+](=O)[O-])ccc2[nH]c2c([N+](=O)[O-])cc([N+](=O)[O-])cc12`: the inhibition is inactive: -9.27%.

For the compound `CN(C)C(=O)Oc1noc2ccccc12`, the inhibition was inactive: 1.63%.

For the compound `CC(NC(=O)COC(=O)C(O)(c1ccccc1)c1ccccc1)c1ccccc1` (stereo not drawn), the inhibition is inactive: -10.5%.

`Cc1ccccc1OP(=O)(Nc1ccccn1)Oc1ccccc1C`: the inhibition was inactive: -8.69%.

Take `CCC(=O)N1C2C3N(C(=O)CC)C1C1N(C(=O)CC)C(C(N1C(=O)CC)N3C(=O)CC)N2C(=O)CC`: the inhibition was inactive: 8.97%.

On to `O=C(OC1CN2CCC1CC2)c1ccccc1` (stereo not drawn), for which the inhibition is inactive: 1.55%.

Turning to `CC(=O)NC(SC(=S)N(CC(C)C)CC(C)C)C(Cl)(Cl)Cl` (stereo not drawn), the inhibition is inactive: -1.09%.

As for `Cc1ccc(OP(=O)(Nc2ccccn2)Oc2ccc(C)cc2)cc1`, the inhibition is inactive: 3.77%.

Regarding `COC(=O)c1cc2c(s1)N=C(c1ccccc1)N(C)P2(=O)N1CCOCC1` (stereo not drawn), the inhibition is inactive: -6.23%.

`C[C@H]1OP(=O)(Oc2ccccc2)[C@H](O)[C@H](O)[C@H]1N=[N+]=[N-]` (stereo partly drawn): the inhibition was inactive: -3.16%.

Turning to `O=P(Nc1nc2ccccc2s1)(c1ccccc1)c1ccccc1`, the inhibition was inactive: 6.36%.

On to `CN(C)C1(CNC(=O)c2ccc(Cl)c(S(N)(=O)=O)c2)CCCCC1`, for which the inhibition was inactive: -2.46%.

On to `O=P(Nc1ccccn1)(c1ccc(Br)cc1)c1ccc(Br)cc1`, for which the inhibition was inactive: -9.65%.

With `COc1ccc(N)c([N+](=O)[O-])c1[N+](=O)[O-]`, the inhibition is inactive: -5.63%.

With `O=C(OC1CN2CCC1CC2)c1cccc(Cl)c1` (stereo not drawn), the inhibition was inactive: -0.3%.

`C(Cc1nn[nH]n1)Cc1nn[nH]n1`: the inhibition was inactive: -11.1%.

Take `Nc1ccc([As](=O)(O)c2ccc([N+](=O)[O-])cc2)cc1`: the inhibition was inactive: -7.18%.

With `O=[As](O)(c1ccccc1)c1ccc(O)cc1`, the inhibition is inactive: 9.37%.

For `CC(=O)NC(SC(=S)N(C)C)C(Cl)(Cl)Cl` (stereo not drawn), the inhibition was inactive: 2.7%.

In the case of `O=[N+]([O-])c1ncn(CCn2cnc([N+](=O)[O-])n2)n1`, the inhibition is inactive: 7.21%.

As for `O=[N+]([O-])c1ccc(O)c(/C=N/Nc2ccc([N+](=O)[O-])cc2[N+](=O)[O-])c1`, the inhibition is inactive: -8.82%.

In the case of `c1nnnn1CCn1cnnn1`, the inhibition is inactive: -6.16%.

As for `O=P(Nc1nccs1)(c1ccccc1)c1ccccc1`, the inhibition is inactive: 1.78%.

In the case of `CC(C)C(=O)NC(Sc1ccccc1)C(Cl)(Cl)Cl` (stereo not drawn), the inhibition is inactive: -3.88%.

These data come from PubChem BioAssay AID504734 (The Scripps Research Institute Molecular Screening Center, 2011).
